Chains of the proteins cited; added tags and fusions are not shown.
UniProt Q01827, whole entry: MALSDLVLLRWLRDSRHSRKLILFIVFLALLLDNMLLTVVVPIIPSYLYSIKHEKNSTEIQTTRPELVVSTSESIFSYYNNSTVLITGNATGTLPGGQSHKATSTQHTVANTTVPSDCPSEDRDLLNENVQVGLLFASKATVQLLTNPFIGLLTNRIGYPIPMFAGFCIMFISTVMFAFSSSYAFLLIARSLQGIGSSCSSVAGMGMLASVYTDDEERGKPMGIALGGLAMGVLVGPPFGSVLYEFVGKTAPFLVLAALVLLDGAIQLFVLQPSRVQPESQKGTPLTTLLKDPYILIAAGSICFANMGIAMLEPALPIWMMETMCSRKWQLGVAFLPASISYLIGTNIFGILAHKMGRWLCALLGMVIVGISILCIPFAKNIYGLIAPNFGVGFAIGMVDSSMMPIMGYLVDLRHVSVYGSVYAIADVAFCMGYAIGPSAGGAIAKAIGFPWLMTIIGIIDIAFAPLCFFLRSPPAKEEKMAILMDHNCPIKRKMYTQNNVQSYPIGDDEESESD

In ChEMBL document CHEMBL3588780, “Quinolyl analogues of norlobelane: novel potent inhibitors of [(3)H]dihydrotetrabenazine binding and [(3)H]dopamine uptake at the vesicular monoamine transporter-2” (Bioorg Med Chem Lett, 2015):

Experiments:
[1] = target: Synaptic vesicular amine transporter (Rattus norvegicus) (UniProt Q01827); experiment: Displacement of [3H]DTBZ from VMAT2 in rat whole brain relative to quinlobelane
[2] = target: Synaptic vesicular amine transporter (Rattus norvegicus) (UniProt Q01827); experiment: Ratio of Ki for displacement of [3H]DTBZ from VMAT2 in rat whole brain to Ki for inhibition of VMAT2-mediated [3H]DA uptake in rat brain synaptic vesicles; assay type: tissue-based

c1ccc2c(CC[C@H]3CCC[C@@H](CCc4ccnc5ccccc45)N3)ccnc2c1
Ratio Ki [1]: 15
Ratio Ki [2]: 3
